## Ab-95 light chain CDR variants: yeast mating affinities

Reference: Engelhart et al. 2022, doi:10.1038/s41597-022-01779-4. File: FLAb, binding data.

Binding partner: SARS-CoV-2 spike HR2 peptide, sequence PDVDLGDISGINAS.

Each scFv is VH, the linker GGGGSGGGGSGGGGS, VL, as in the parent Ab-95, and differs from it in the CDRs of the light chain only.
VH: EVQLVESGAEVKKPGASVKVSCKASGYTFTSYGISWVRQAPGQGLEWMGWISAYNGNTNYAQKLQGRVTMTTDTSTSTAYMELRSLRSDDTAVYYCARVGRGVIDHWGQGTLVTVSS
VL: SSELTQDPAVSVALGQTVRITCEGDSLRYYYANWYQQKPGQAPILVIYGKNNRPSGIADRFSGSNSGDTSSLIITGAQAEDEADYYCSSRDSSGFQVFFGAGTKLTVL

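The starting antibody came from a phage panning campaign against this peptide. In library AAYL52, one, two or three CDR residues were substituted; doubles and triples were drawn at random. AlphaSeq pools MATa yeast showing the antibodies with MATalpha yeast showing the peptide. The frequency of each diploid, read from paired DNA barcodes, reflects how well the two displayed proteins bind. Scores were corrected for input abundance and mapped to Kd with protein pairs of known affinity run in the same pool. There are three technical replicates.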

Each variant is given by its three light chain CDRs, as the data file delimits them; those of the parent are EGDSLRYYYAN, GKNNRPS, SSRDSSGFQVF.
Affinities are written as log10 Kd with Kd in nM; a lower number is a better binder.
The mean shown is taken over the replicates in which the pair was detected.
"not detected" marks a missing value. The strain was present, yet no cells mated with the target were sequenced in any replicate, which points to weak or no binding.
For reference, the parent read 2.31 as the reference entry and 2.25 as a member of this library.
Nonspecific signal, from three strains lacking the peptide, appeared in 28% of pairings of library AAYL52, centred on 3.91 (5% of these signals below 2.90); values are not corrected for it.

| mean, log10 nM | seen in | CDR-L1 | CDR-L2 | CDR-L3 |
|---|---|---|---|---|
| 4.50 | 1 of 3 | EGDSLRYYYAN | GKKNRPS | SSDDESGFQVF |
| 2.08 | 3 of 3 | EGDSLRFYYAN | GKNNRPS | SSRDSIGFQVF |
| 2.82 | 3 of 3 | TGDSLREYYAN | GKNNRPS | SSRDSSGFQVF |
| 3.76 | 2 of 3 | EGDSRRYYYAN | GKNKRPS | ASRDSSGFQVF |
| not detected | 0 of 3 | EGDSLNYYYAN | RKNNRPS | SSRDSSGFQVQ |
| 4.54 | 2 of 3 | EGDQLRYYYAN | GKNNRAS | SSRDNSGFQVF |
| 3.34 | 2 of 3 | EGDSLRYYYAN | GTNNRCS | SSRDSSGFQQF |
| 2.17 | 3 of 3 | EGDSLRGYYAN | GKNNRPP | SSRDSSGFQYF |
| not detected | 0 of 3 | EGDSLRYYYAN | GENNRPS | HSRDSSGFQVC |
| 2.24 | 3 of 3 | TGDSLRYYYAN | GKNNRPS | SSRPSSGQQVF |
| 3.43 | 3 of 3 | EGDSLRCYTAN | GKNNRPS | SSRDSSGFRVF |
| 3.15 | 2 of 3 | EGDSLRYYYAN | GKNNNPS | SSRDSKGFQVF |
| 2.58 | 3 of 3 | EGDSLRYYYAN | GKNNRPS | SSAESMGFQVF |
| 4.15 | 1 of 3 | EKDSLRYCYAN | GKNNRPS | SSDDSSGFQVF |
| 4.03 | 1 of 3 | EGDSLRVYYAA | GKNNRPS | SSRDSSGFGVF |
| not detected | 0 of 3 | RGDSLRYYYAN | GKNNRPS | SSRDSIGFEVF |
| not detected | 0 of 3 | EGDSLRYYYAN | GKVNRPS | SSRDSSGCQVS |
| 3.12 | 3 of 3 | EGDSLRYYDAN | GKNNWPS | SSRDSSGLQVF |
| not detected | 0 of 3 | EGDSLRYYYAN | GKFKRPS | SSRDSSRFQVF |
| 3.39 | 1 of 3 | EGDSLNYYYAN | GKINRPS | SSRDSSGFQVL |
| 3.91 | 1 of 3 | EGDSLRCYYAD | GKNNRPS | ISRDSSGFQVF |
| 3.53 | 2 of 3 | EGDSVAYYYAN | GKNNRPS | SIRDSSGFQVF |
| 3.94 | 2 of 3 | EGDSLRDYYAN | PKNNRPS | SYRDSSGFQVF |
| 4.01 | 2 of 3 | EGDPLCYYYAN | GKNIRPS | SSRDSSGFQVF |
| 3.72 | 2 of 3 | EGRSLRYYYAN | GKNNYPS | SSRDSSGFQVF |
| 3.51 | 1 of 3 | EGDSLRYMYAN | GKQNRPS | DSRDSSGFQVF |
| 3.88 | 1 of 3 | EGDSLRGYAAW | GKNNRPS | SSRDSSGFQVF |
| 3.41 | 3 of 3 | EGDMLRYYYAN | GKNFRPS | SSRDSSGFQVF |
| not detected | 0 of 3 | EGDSLDYYYAN | PKNNRPI | SSRDSSGFQVF |
| 4.27 | 2 of 3 | EWDSIRYYYAN | GKNNRPS | SSRDSSGFQVH |
| 2.25 | 3 of 3 | EGDSERSYGAN | GKNNRPS | SSRDSSGFQVF |
| 2.45 | 3 of 3 | EGISGRYYYAN | GKNNRPS | NSRDSSGFQVF |
| 1.01 | 3 of 3 | EGDSLRYGYAN | GKNFRPS | SSRDSSGFQVF |
| 4.76 | 1 of 3 | EWNSLRYYWAN | GKNNRPS | SSRDSSGFQVF |
| 4.30 | 2 of 3 | EGDSLRYYYQN | GKANRPS | SMRDSSGFQVF |
| 2.65 | 3 of 3 | EGDSLRYYYPN | GKNNRPS | SSRVSSGFQVA |
| 4.59 | 3 of 3 | EGDSLRYYYAN | GINNGPS | SSRDSSGFVVF |
| 3.28 | 1 of 3 | EGDSSRYYYAN | GKNNRPE | SSRDSSGFWVF |
| 1.82 | 3 of 3 | EGDSLRCMYAN | GKNNRPS | TSRDSSGFQVF |
| 0.81 | 3 of 3 | EGDSLRYNYAN | GKNRTPS | SSRDSSGFQVF |
| 5.84 | 1 of 3 | EVDSLRYYYAN | PKNCRPS | SSRDSSGFQVF |
| 3.81 | 1 of 3 | EEDSLRYYYAN | WKNNRPS | SSADSSGFQVF |
| 3.64 | 2 of 3 | ELDSLRYYYAN | GCNNRPS | CSRDSSGFQVF |
| 2.38 | 3 of 3 | EGDSLRYDYAN | GKNKRPS | SSRDSAGFQVF |
| 3.52 | 2 of 3 | SFDSLRYYYAN | GKNNRPS | SSHDSSGFQVF |
| 4.57 | 2 of 3 | EGDSLRYFYAN | GKNNRPS | SQRDNSGFQVF |
| 3.81 | 2 of 3 | EGDSLRYYYAN | WKNNRPS | SSRDSAGFQMF |
| 4.51 | 2 of 3 | EGDSLRYYQAN | GKNNRPS | SSRDSSWFHVF |
| 3.15 | 3 of 3 | EGDSVRYYYAN | GKNNRPS | SSRMSSRFQVF |
| not detected | 0 of 3 | EGDSLRAYYAN | GKNNRPS | SSRDFSGFQVF |
| 2.84 | 3 of 3 | EGDSLRYYDAN | QKNNSPS | SSRDSSGFQVF |
| 2.35 | 3 of 3 | EGDSLRYYYAN | GENNRPS | SSYDSSGFQVW |
| 3.31 | 2 of 3 | EGDSLRQYYAN | GKQNRPS | SSLDSSGFQVF |
| 2.57 | 1 of 3 | EQDSLRYYYAN | GVNNRPP | SSRDSSGFQVF |
| 4.21 | 2 of 3 | EGDSLRYYYAN | VKNNRPS | SSRDTAGFQVF |
| 3.29 | 3 of 3 | EGDSLRYFHAN | GKNNAPS | SSRDSSGFQVF |
| not detected | 0 of 3 | EGDSLRYYYHN | VKNNRPS | HSRDSSGFQVF |
| 3.04 | 3 of 3 | EGASLRYYYAN | GKSNRPS | SSRDISGFQVF |
| 4.19 | 3 of 3 | EGDSLRYYYAN | GKRGRPS | SSRDSSGFQMF |
| not detected | 0 of 3 | EGDFLRYYYAN | GKNNRPS | GSRDSSGFQVI |
| not detected | 0 of 3 | EGDSLRYYYAM | GSNQRPS | SSRDSSGFQVF |
| not detected | 0 of 3 | EGDSLCYYYKN | GKNNRPS | SSRDDSGFQVF |
| 3.91 | 2 of 3 | EGDELRYYYAN | GKNNRPS | SSRDSSGFQVA |
| 4.44 | 3 of 3 | EGDSLRYYYAF | TKNNRPS | SSRDSSGFEVF |
| 4.04 | 1 of 3 | EGDSLRYYYAN | FKNNRPS | SSRDSSCFQVF |
| 4.31 | 2 of 3 | EGDSLRYYYAN | GKNNRPS | SSRYSSGIAVF |
| 1.87 | 3 of 3 | EGDSLRYYQAN | GKNNTPS | SSRDSTGFQVF |
| 3.13 | 1 of 3 | EGDSWRYYYAN | GKNNSPS | STRDSSGFQVF |
| not detected | 0 of 3 | EGDSLRYYYAN | GKNIRPS | QSRDSSGFQVQ |
| 4.87 | 1 of 3 | EGDSLRYYYAN | GKNNRPS | SARISSGFQVF |
| 5.38 | 1 of 3 | EGDSLRYYYAN | EKNNPPV | SSRDSSGFQVF |
| 3.34 | 1 of 3 | EGDSLRYYYMN | GKNNRPS | SSRDSIGFDVF |
| 4.57 | 3 of 3 | EPDSLRYYYAN | GKNNRPS | SSRDSSGFYVR |
| 3.17 | 3 of 3 | EGDSLRYYYAN | GKNVRPS | ASRDNSGFQVF |
| 2.02 | 3 of 3 | EGDSFRYYYAN | GKNNRPS | SSRDMSYFQVF |
| 1.19 | 3 of 3 | EGDSLRGYYAN | GKNNRPS | SSRDRSSFQVF |

A selection of 10 entries from above:

CDR-L1,CDR-L2,CDR-L3,"mean, log10 nM",seen in
EGDSLRYYYAN,GKFKRPS,SSRDSSRFQVF,not detected,0 of 3
EGDSLRYFHAN,GKNNAPS,SSRDSSGFQVF,3.29,3 of 3
EGDSSRYYYAN,GKNNRPE,SSRDSSGFWVF,3.28,1 of 3
EGDSLRYYYHN,VKNNRPS,HSRDSSGFQVF,not detected,0 of 3
EGDSLRCYYAD,GKNNRPS,ISRDSSGFQVF,3.91,1 of 3
SFDSLRYYYAN,GKNNRPS,SSHDSSGFQVF,3.52,2 of 3
EGDSLRYYYAN,FKNNRPS,SSRDSSCFQVF,4.04,1 of 3
EGDSLRGYYAN,GKNNRPP,SSRDSSGFQYF,2.17,3 of 3
EGDQLRYYYAN,GKNNRAS,SSRDNSGFQVF,4.54,2 of 3
EGDSLRQYYAN,GKQNRPS,SSLDSSGFQVF,3.31,2 of 3